Apparent affinities of Ab-14 variants for a coronavirus HR2 peptide

Antigen: PDVDLGDISGINAS, a 14-residue peptide of the SARS-CoV-2 spike HR2 region.

Each scFv is VH, a 15-residue (Gly4Ser)3 linker, VL, as in the parent Ab-14, and differs from it in the CDRs of the light chain only.
VH: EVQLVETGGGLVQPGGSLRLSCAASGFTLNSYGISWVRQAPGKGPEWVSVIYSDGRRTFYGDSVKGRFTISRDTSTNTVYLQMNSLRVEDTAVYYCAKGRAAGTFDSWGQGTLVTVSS
VL: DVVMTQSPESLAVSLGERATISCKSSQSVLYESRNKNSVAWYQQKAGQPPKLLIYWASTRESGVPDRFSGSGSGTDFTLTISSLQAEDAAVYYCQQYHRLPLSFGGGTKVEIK

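The starting antibody came from a phage panning campaign against this peptide. In library AAYL50, one, two or three CDR residues were substituted; doubles and triples were drawn at random. In AlphaSeq, yeast of one mating type display the scFv and yeast of the other type display the target. Pairs that bind mate more often; barcode pairs of the diploids are counted by sequencing. The ratio of observed to expected reads was calibrated, replicate by replicate, on BCL2-family standards whose Kd was known from biolayer interferometry. The assay was run in three technical replicates.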

Positions count from residue 1 of the parent VL; S26D puts D in place of S. Values are log10 of the apparent Kd in nM; lower means stronger binding. Replicates are averaged; those with no signal do not enter the mean. "not detected" marks a missing value. The strain was present, yet no cells mated with the target were sequenced in any replicate, which points to weak or no binding. Three control strains display no target. For library AAYL50, 18% of the pairings with them gave a signal, with a median of 4.19 and one signal in twenty below 2.99, so weak values seen in few replicates may be background.

log10 Kd (nM), mean	detected	changes
5.49	1 of 3	S26D/T59P/Q95D
not detected	0 of 3	S33W/S62K/P101D
2.02	3 of 3	Q27F/N37H/S103F
not detected	0 of 3	T59S/Y97G/H98K
4.58	1 of 3	Q27V/R34C/R60I
not detected	0 of 3	E61R/Q96V/H98Y
not detected	0 of 3	V39P/A57Q/T59K
not detected	0 of 3	A57P/R60C/L100C
1.42	3 of 3	Y31D/N35V/R60I
not detected	0 of 3	S25W/Y97W/L102K
not detected	0 of 3	A57E/L100I/S103K
not detected	0 of 3	A40G/A57F/S58I
not detected	0 of 3	A40G/H98M/S103G
not detected	0 of 3	Q27L/E32H/Q95L
4.67	1 of 3	V29G/E32Q/R60F
3.35	1 of 3	S26L/L30T/S103V
0.10	3 of 3	W56D/S58I/L100A
1.29	3 of 3	Q27T/S62K
1.33	3 of 3	Y31P/Q95F/R99Q
2.28	3 of 3	S26R/T59D/E61S
2.47	3 of 3	K24Q/R34V/A40C
0.34	3 of 3	Q27G/S33H/W56H
not detected	0 of 3	S62Q/Q95Y
3.91	2 of 3	A57D/Q96C/L102R
not detected	0 of 3	A57V/Y97S/P101Y
4.49	3 of 3	S25Q/V39S/H98V
4.25	3 of 3	K36M/N37K/R99Y
1.63	3 of 3	L30W/N35G/S58K
3.21	1 of 3	Q96W/R99K/L100S
5.25	2 of 3	K24C/Q27F/A40C
not detected	0 of 3	V39K/A40S/H98P
3.99	2 of 3	V29N/A57G/Q95V
0.80	3 of 3	S26V/R34P/S62N
0.45	3 of 3	S26H/L30E/S62L
3.75	2 of 3	Q27L/T59L/R60T
not detected	0 of 3	V39R/T59Y/L100C
0.90	3 of 3	S26W/L30P/A57G
0.30	3 of 3	K24D/W56G/L100I
2.32	3 of 3	V29E/N35V/L100Y
0.87	3 of 3	N35M/S38N/W56R
2.16	3 of 3	S26M/Q96F
not detected	0 of 3	S25G/A57V/P101W
2.56	1 of 3	Q27P/S33L/T59S
not detected	0 of 3	A40H/H98M/S103D
2.62	3 of 3	V29C/K36N/N37D
2.12	3 of 3	V39I/S58N/P101F
1.26	3 of 3	L30I/R99I/S103A
not detected	0 of 3	Y31G/V39W/Q96N
not detected	0 of 3	T59I/R60D/Y97I
3.04	1 of 3	S28C/S33Y/S62M
2.83	1 of 3	W56S/S62F/Q95T
not detected	0 of 3	N37R/R60N/S62F
2.15	3 of 3	S26G/N37H/T59C
3.07	3 of 3	N37K/Q96T/L102W
0.74	3 of 3	L30V/E61T/L102C
2.18	3 of 3	S28C/H98L
3.72	1 of 3	S33F/Q96S/L102T
1.65	3 of 3	S26P/N35D/S58T
4.58	2 of 3	S28A/N35Q/V39G
3.20	3 of 3	R34H/N35D/Y97H
3.10	1 of 3	K36H/R60I/S62R
2.99	3 of 3	Q95T/Q96W/Y97G
not detected	0 of 3	Q27C/V29D
3.31	1 of 3	Q27Y/V39W/R60E
not detected	0 of 3	S25Q/N35C/R60S
1.59	3 of 3	Q27I/S62H/H98T
3.63	1 of 3	S26Q/W56P
not detected	0 of 3	V29M/S38C/L102E

Excerpt, the first 7 entries:

{"changes": "S26D/T59P/Q95D", "log10 Kd (nM), mean": "5.49", "detected": "1 of 3"}
{"changes": "S33W/S62K/P101D", "log10 Kd (nM), mean": "not detected", "detected": "0 of 3"}
{"changes": "Q27F/N37H/S103F", "log10 Kd (nM), mean": "2.02", "detected": "3 of 3"}
{"changes": "T59S/Y97G/H98K", "log10 Kd (nM), mean": "not detected", "detected": "0 of 3"}
{"changes": "Q27V/R34C/R60I", "log10 Kd (nM), mean": "4.58", "detected": "1 of 3"}
{"changes": "E61R/Q96V/H98Y", "log10 Kd (nM), mean": "not detected", "detected": "0 of 3"}
{"changes": "V39P/A57Q/T59K", "log10 Kd (nM), mean": "not detected", "detected": "0 of 3"}

Values reported by Engelhart et al. 2022, doi:10.1038/s41597-022-01779-4 (FLAb copy).